Laboratory results reported in PMC7205193, “Crystal structure of the mitochondrial protein mitoNEET bound to a benze-sulfonide ligand” (Communications chemistry, 2019).

Biological target: T1, mitoNEET (Homo sapiens, UniProt Q9NZ45)
T1 sequence (Q9NZ45 32-108 limits assumed): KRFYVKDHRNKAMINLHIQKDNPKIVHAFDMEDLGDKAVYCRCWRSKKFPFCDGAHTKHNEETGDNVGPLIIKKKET
Assay: [3H]rosiglitazone displacement binding assay (SPA)
Details: 20 nM [3H]rosiglitazone, 60 min, room temperature, 50 mM Tris pH 8; ± std error
Protocol: Recombinant mitoNEET was attached to nickel scintillation proximity assay (SPA) beads, and incubated with 20 nM [^3H] rosiglitazone (PerkinElmer) for 60 min at room temperature. The binding buffer was 50 mM Tris pH 8. White clear bottom 96-well plates were used for the assay, and the counts per minute analyzed in a MicroBeta Counter (Perkin Elmer). Data were analyzed as fraction of the total binding using a one-site model with GrapPad Prism 6 statistical software. All binding curves had R^2 > 0.9.

IC50: 31.2 ± 1.02 µM
Structure (SMILES): NS(=O)(=O)c1cc(C(=O)O)c(NC2CCCCC2)cc1Cl [2k]
